The assay concerns the target NK2 (h), neurokinin receptor 2 (human (printed as (h))), P21452. Briefly: Cerep ExpresSProfile radioligand competition binding, reference compound (agonist radioligand).

Protein sequences, listed by entry. Tags and fused reporters are not part of them.
NK2 (h), neurokinin receptor 2 (human (printed as (h))), P21452, UniProt P21452, whole entry: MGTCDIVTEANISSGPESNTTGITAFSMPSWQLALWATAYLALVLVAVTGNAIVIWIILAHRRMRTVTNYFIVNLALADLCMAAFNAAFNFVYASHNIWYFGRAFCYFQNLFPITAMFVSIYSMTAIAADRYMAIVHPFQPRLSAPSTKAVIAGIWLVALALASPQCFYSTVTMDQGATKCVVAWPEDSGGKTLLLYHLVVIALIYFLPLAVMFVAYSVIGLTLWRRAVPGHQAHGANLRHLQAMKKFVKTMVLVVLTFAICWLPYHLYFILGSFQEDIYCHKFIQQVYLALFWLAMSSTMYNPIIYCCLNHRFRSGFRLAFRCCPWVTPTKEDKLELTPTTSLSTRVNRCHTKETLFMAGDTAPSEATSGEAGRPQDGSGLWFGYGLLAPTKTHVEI

B1: [Nleu10]-NKA (4-10) (peptide)
chain: DSFVGLL
modifications: not checked
Take B1: the Ki stood at 2.5 nM.
